According to patent US20070259952A1, “USES OF ESCITALOPRAM” (H. LUNDBECK A/S, priority 2006, published 2007):

Test system: NMDA-induced currents in pyramidal cells of the medial prefrontal cortex
Experiment: Facilitation of NMDA-induced currents in pyramidal cells of the medial prefrontal cortex in vitro (brain slices, voltage-clamp)
Assay type: cell-based, rat
Conditions: bath application; holding potential −60 mV; FIG. 3

**Q.** Which “effect on NMDA-induced currents in pyramidal cells of the prefrontal cortex” value does the source give for `CN(C)CCC[C@@]1(c2ccc(F)cc2)OCc2cc(C#N)ccc21` [escitalopram, (S)-1-[3-(dimethylamino)propyl]-1-(4-fluorophenyl)-1,3-dihydro-5-isobenzofurancarbonitrile] here?
**A.** Its value is “facilitates the NMDA-induced currents to similar extent as the risperidone and reboxetine”.
